Results: patent publication EP0701444B1, “METHODS AND COMPOSITIONS FOR INDUCING SLEEP” (Purdue Pharma Ltd., priority 1993, dated 1994)

Test system: rats
Assay: Rat sleep-wake bioassay (EEG, EMG, locomotor activity, body temperature)
Assay type: in vivo, Wistar rats
Settings: administered at CT-18
Source text: Rats are a suitable model for human sleep because all compounds that are hypnotics in man have hypnotic effects in rats and vice versa. Edgar, D.M. "Drug Discovery and Evaluation Using the Advanced Technology Sleep-Wake Bioassay Laboratory at Stanford University" p. 4, December 1992. In addition, the rat model for human sleep has been accepted by peer-review committees at NIH Id. at 5. Furthermore, rat sleep and human sleep are fundamentally the same. Id. at 4. For example, the proportion of time spent in NREM versus REM sleep is about 4:1 in both rats and humans. Id. at 5.
Rat preparation, monitoring, and analysis of the data was conducted as described below. […] Body temperature and locomotor activity were monitored via a miniature transmitter (Minimitter) surgically placed in the abdomen. […]
The computers monitored the EEG, EMG, body temperature and non-specific locomotor activity (LMA) via telemetry, and drinking activity from 48 rats simultaneously. […] Drinking and LMA were recorded every 10 seconds, while body temperature was recorded every minute.
Therefore, time of treatment is important. […] By administering the drug at CT-5 when the propensity for REM sleep is greatest, the drug's effect on REM sleep can be measured more accurately. […]

## Cc1nnc2n1-c1ccc(Cl)cc1C(c1ccccc1Cl)=NC2 [Triazolam]
  rebound reduction of NREM sleep: showed a rebound reduction of NREM sleep
